The results in this text go back to ChEMBL document CHEMBL5113526, “Design, Synthesis, and Biological Evaluation of Androgen Receptor Degrading and Antagonizing Bifunctional Steroidal Analogs for the Treatment of Advanced Prostate Cancer” (J Med Chem, 2022).

For the experiment, the system named is LNCaP C4-2B. Put plainly: animal or person. The conditions noted are these: Homo sapiens.

The IC50 is the concentration that gives 50% inhibition. Lower therefore signals greater potency in that assay. With `CNC(=O)c1ccc(N2C(=S)N(c3ccc(C#N)c(C(F)(F)F)c3)C(=O)C2(C)C)cc1F` [ENZALUTAMIDE], the IC50 came out at 22.2 µM.
